From ChEMBL document CHEMBL1154010, “Aziridine alkaloids as potential therapeutic agents” (Eur J Med Chem, 2009)

Test: Dissociation constant of the compound

## C1CN1
  pKa: 7.98
